Membrane permeability of cyclic peptides

Values of Kelly et al. 2021, doi:10.1021/jacs.0c06115, as listed in CycPeptMPDB.

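Conditions beyond the assay type are not listed; see the original paper. The list need not hold all peptides of the study. Entries at the database's floor value (log10 P of -10) are not listed.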

PAMPA is the parallel artificial membrane permeability assay, which has no cells and reads passive diffusion.
P is given in units of 10^-6 cm/s (from log10 values with two decimals); larger means faster passage.

{"smiles": "CC(=O)N1CCC[C@H]1C(=O)N(C)[C@@H](CC(C)C)C(=O)N[C@@H]1C(=O)N(C)[C@H](CC(C)C)C(=O)N[C@H](CC(C)C)C(=O)N(C)[C@H](CC(C)C)C(=O)N[C@@H](C)C(=O)N[C@@H](CC(C)C)C(=O)N2CCC[C@H]2C(=O)O[C@@H]1C", "PAMPA (10^-6 cm/s)": "1"}
{"smiles": "CC(=O)N1CCC[C@H]1C(=O)N(C)[C@H](CC(C)C)C(=O)N[C@@H]1C(=O)N[C@@H](CC(C)C)C(=O)N[C@@H](CC(C)C)C(=O)N(C)[C@@H](CC(C)C)C(=O)N(C)[C@@H](C)C(=O)N[C@@H](CC(C)C)C(=O)N2CCC[C@H]2C(=O)O[C@@H]1C", "PAMPA (10^-6 cm/s)": "1.1"}
{"smiles": "CC(=O)N1CCC[C@H]1C(=O)N[C@@H]1C(=O)N[C@H](CC(C)C)C(=O)N(C)[C@H](CC(C)C)C(=O)N[C@@H](CC(C)C)C(=O)N(C)[C@H](CC(C)C)C(=O)N(C)[C@H](C)C(=O)N[C@@H](CC(C)C)C(=O)N2CCC[C@@H]2C(=O)O[C@@H]1C", "PAMPA (10^-6 cm/s)": "4.5"}
{"smiles": "CC(=O)N1CCC[C@H]1C(=O)N(C)[C@H](CC(C)C)C(=O)N[C@@H]1C(=O)N[C@H](CC(C)C)C(=O)N[C@@H](CC(C)C)C(=O)N[C@H](CC(C)C)C(=O)N(C)[C@H](C)C(=O)N[C@H](CC(C)C)C(=O)N2CCC[C@@H]2C(=O)O[C@@H]1C", "PAMPA (10^-6 cm/s)": "0.69"}
{"smiles": "CC(=O)N1CCC[C@@H]1C(=O)N(C)[C@H](CC(C)C)C(=O)N[C@@H]1C(=O)N(C)[C@@H](CC(C)C)C(=O)N[C@@H](CC(C)C)C(=O)N[C@H](CC(C)C)C(=O)N[C@@H](C)C(=O)N[C@H](CC(C)C)C(=O)N2CCC[C@H]2C(=O)O[C@@H]1C", "PAMPA (10^-6 cm/s)": "0.16"}
{"smiles": "CC(=O)N1CCC[C@@H]1C(=O)N(C)[C@H](CC(C)C)C(=O)N[C@@H]1C(=O)N(C)[C@@H](CC(C)C)C(=O)N[C@H](CC(C)C)C(=O)N[C@H](CC(C)C)C(=O)N[C@H](C)C(=O)N[C@H](CC(C)C)C(=O)N2CCC[C@@H]2C(=O)O[C@@H]1C", "PAMPA (10^-6 cm/s)": "0.06"}
{"smiles": "CC(=O)N1CCC[C@H]1C(=O)N(C)[C@H](CC(C)C)C(=O)N[C@@H]1C(=O)N[C@H](CC(C)C)C(=O)N(C)[C@H](CC(C)C)C(=O)N(C)[C@@H](CC(C)C)C(=O)N[C@@H](C)C(=O)N[C@H](CC(C)C)C(=O)N2CCC[C@H]2C(=O)O[C@@H]1C", "PAMPA (10^-6 cm/s)": "1.1"}
{"smiles": "CC(=O)N[C@@H]1C(=O)N2CCC[C@H]2C(=O)N(C)[C@H](CC(C)C)C(=O)N(C)[C@H](CC(C)C)C(=O)N(C)[C@@H](CC(C)C)C(=O)N(C)[C@@H](CC(C)C)C(=O)N(C)[C@@H](C)C(=O)N[C@@H](CC(C)C)C(=O)N2CCC[C@@H]2C(=O)O[C@@H]1C", "PAMPA (10^-6 cm/s)": "3.4"}
{"smiles": "CC(=O)N1CCC[C@H]1C(=O)N[C@@H]1C(=O)N(C)[C@H](CC(C)C)C(=O)N[C@H](CC(C)C)C(=O)N[C@H](CC(C)C)C(=O)N(C)[C@@H](CC(C)C)C(=O)N(C)[C@@H](C)C(=O)N[C@@H](CC(C)C)C(=O)N2CCC[C@@H]2C(=O)O[C@@H]1C", "PAMPA (10^-6 cm/s)": "0.63"}
{"smiles": "CC(=O)N1CCC[C@@H]1C(=O)N(C)[C@@H](CC(C)C)C(=O)N[C@@H]1C(=O)N[C@H](CC(C)C)C(=O)N[C@H](CC(C)C)C(=O)N[C@H](CC(C)C)C(=O)N[C@H](C)C(=O)N[C@H](CC(C)C)C(=O)N2CCC[C@H]2C(=O)O[C@@H]1C", "PAMPA (10^-6 cm/s)": "0.22"}
{"smiles": "CC(=O)N1CCC[C@H]1C(=O)N(C)[C@@H](CC(C)C)C(=O)N[C@@H]1C(=O)N[C@@H](CC(C)C)C(=O)N[C@H](CC(C)C)C(=O)N(C)[C@@H](CC(C)C)C(=O)N(C)[C@@H](C)C(=O)N[C@H](CC(C)C)C(=O)N2CCC[C@@H]2C(=O)O[C@@H]1C", "PAMPA (10^-6 cm/s)": "1.9"}
{"smiles": "CC(=O)N1CCC[C@H]1C(=O)N(C)[C@H](CC(C)C)C(=O)N[C@@H]1C(=O)N(C)[C@@H](CC(C)C)C(=O)N[C@@H](CC(C)C)C(=O)N[C@H](CC(C)C)C(=O)N[C@@H](C)C(=O)N[C@H](CC(C)C)C(=O)N2CCC[C@@H]2C(=O)O[C@@H]1C", "PAMPA (10^-6 cm/s)": "0.13"}
{"smiles": "CC(=O)N1CCC[C@H]1C(=O)N(C)[C@@H](CC(C)C)C(=O)N[C@@H]1C(=O)N[C@H](CC(C)C)C(=O)N(C)[C@H](CC(C)C)C(=O)N[C@@H](CC(C)C)C(=O)N(C)[C@@H](C)C(=O)N[C@@H](CC(C)C)C(=O)N2CCC[C@@H]2C(=O)O[C@@H]1C", "PAMPA (10^-6 cm/s)": "7.8"}
{"smiles": "CC(=O)N1CCC[C@H]1C(=O)N(C)[C@H](CC(C)C)C(=O)N[C@@H]1C(=O)N[C@H](CC(C)C)C(=O)N[C@@H](CC(C)C)C(=O)N(C)[C@H](CC(C)C)C(=O)N(C)[C@H](C)C(=O)N[C@@H](CC(C)C)C(=O)N2CCC[C@H]2C(=O)O[C@@H]1C", "PAMPA (10^-6 cm/s)": "7.4"}
{"smiles": "CC(=O)N1CCC[C@H]1C(=O)N(C)[C@H](CC(C)C)C(=O)N[C@@H]1C(=O)N[C@@H](CC(C)C)C(=O)N(C)[C@H](CC(C)C)C(=O)N(C)[C@H](CC(C)C)C(=O)N(C)[C@H](C)C(=O)N[C@H](CC(C)C)C(=O)N2CCC[C@@H]2C(=O)O[C@@H]1C", "PAMPA (10^-6 cm/s)": "1.8"}
{"smiles": "CC(=O)N1CCC[C@H]1C(=O)N(C)[C@@H](CC(C)C)C(=O)N[C@@H]1C(=O)N[C@@H](CC(C)C)C(=O)N(C)[C@@H](CC(C)C)C(=O)N(C)[C@H](CC(C)C)C(=O)N[C@H](C)C(=O)N[C@@H](CC(C)C)C(=O)N2CCC[C@@H]2C(=O)O[C@@H]1C", "PAMPA (10^-6 cm/s)": "3"}
{"smiles": "CC(=O)N1CCC[C@@H]1C(=O)N(C)[C@H](CC(C)C)C(=O)N[C@@H]1C(=O)N[C@H](CC(C)C)C(=O)N[C@H](CC(C)C)C(=O)N[C@H](CC(C)C)C(=O)N[C@@H](C)C(=O)N[C@@H](CC(C)C)C(=O)N2CCC[C@H]2C(=O)O[C@@H]1C", "PAMPA (10^-6 cm/s)": "0.42"}
{"smiles": "CC(=O)N1CCC[C@@H]1C(=O)N(C)[C@@H](CC(C)C)C(=O)N[C@@H]1C(=O)N[C@@H](CC(C)C)C(=O)N(C)[C@H](CC(C)C)C(=O)N(C)[C@H](CC(C)C)C(=O)N(C)[C@@H](C)C(=O)N[C@@H](CC(C)C)C(=O)N2CCC[C@@H]2C(=O)O[C@@H]1C", "PAMPA (10^-6 cm/s)": "4.9"}
{"smiles": "CC(=O)N1CCC[C@@H]1C(=O)N(C)[C@H](CC(C)C)C(=O)N[C@@H]1C(=O)N[C@H](CC(C)C)C(=O)N(C)[C@H](CC(C)C)C(=O)N[C@H](CC(C)C)C(=O)N(C)[C@@H](C)C(=O)N[C@H](CC(C)C)C(=O)N2CCC[C@@H]2C(=O)O[C@@H]1C", "PAMPA (10^-6 cm/s)": "1.1"}
{"smiles": "CC(=O)N1CCC[C@@H]1C(=O)N(C)[C@H](CC(C)C)C(=O)N[C@@H]1C(=O)N[C@H](CC(C)C)C(=O)N[C@H](CC(C)C)C(=O)N(C)[C@H](CC(C)C)C(=O)N(C)[C@H](C)C(=O)N[C@H](CC(C)C)C(=O)N2CCC[C@H]2C(=O)O[C@@H]1C", "PAMPA (10^-6 cm/s)": "0.16"}
{"smiles": "CC(=O)N1CCC[C@@H]1C(=O)N(C)[C@@H](CC(C)C)C(=O)N[C@@H]1C(=O)N(C)[C@@H](CC(C)C)C(=O)N[C@@H](CC(C)C)C(=O)N[C@H](CC(C)C)C(=O)N[C@H](C)C(=O)N[C@H](CC(C)C)C(=O)N2CCC[C@H]2C(=O)O[C@@H]1C", "PAMPA (10^-6 cm/s)": "0.18"}

The first 3 entries again:

{"smiles": "CC(=O)N1CCC[C@H]1C(=O)N(C)[C@@H](CC(C)C)C(=O)N[C@@H]1C(=O)N(C)[C@H](CC(C)C)C(=O)N[C@H](CC(C)C)C(=O)N(C)[C@H](CC(C)C)C(=O)N[C@@H](C)C(=O)N[C@@H](CC(C)C)C(=O)N2CCC[C@H]2C(=O)O[C@@H]1C", "PAMPA (10^-6 cm/s)": "1"}
{"smiles": "CC(=O)N1CCC[C@H]1C(=O)N(C)[C@H](CC(C)C)C(=O)N[C@@H]1C(=O)N[C@@H](CC(C)C)C(=O)N[C@@H](CC(C)C)C(=O)N(C)[C@@H](CC(C)C)C(=O)N(C)[C@@H](C)C(=O)N[C@@H](CC(C)C)C(=O)N2CCC[C@H]2C(=O)O[C@@H]1C", "PAMPA (10^-6 cm/s)": "1.1"}
{"smiles": "CC(=O)N1CCC[C@H]1C(=O)N[C@@H]1C(=O)N[C@H](CC(C)C)C(=O)N(C)[C@H](CC(C)C)C(=O)N[C@@H](CC(C)C)C(=O)N(C)[C@H](CC(C)C)C(=O)N(C)[C@H](C)C(=O)N[C@@H](CC(C)C)C(=O)N2CCC[C@@H]2C(=O)O[C@@H]1C", "PAMPA (10^-6 cm/s)": "4.5"}